Laboratory results as given in PMC6204840.

By UniProt entry, the sequences of proteins in these tests, tags left out. Residues count along the entry.
UniProt P02745, 23-245: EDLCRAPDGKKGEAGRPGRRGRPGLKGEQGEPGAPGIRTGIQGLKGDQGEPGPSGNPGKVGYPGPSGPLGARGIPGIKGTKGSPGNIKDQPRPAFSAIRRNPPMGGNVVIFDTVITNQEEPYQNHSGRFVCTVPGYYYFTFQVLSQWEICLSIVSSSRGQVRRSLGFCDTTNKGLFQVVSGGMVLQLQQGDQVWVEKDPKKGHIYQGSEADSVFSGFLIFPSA
Purified C1q, UniProt P02746, 28-253: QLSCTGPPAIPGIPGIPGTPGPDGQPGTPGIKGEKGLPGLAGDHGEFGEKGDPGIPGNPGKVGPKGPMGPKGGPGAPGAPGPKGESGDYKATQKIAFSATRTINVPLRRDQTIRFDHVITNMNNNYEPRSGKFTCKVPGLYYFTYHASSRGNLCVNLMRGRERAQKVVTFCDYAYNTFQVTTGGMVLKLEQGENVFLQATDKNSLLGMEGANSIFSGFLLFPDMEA
Purified C1q, UniProt P02747, 29-245: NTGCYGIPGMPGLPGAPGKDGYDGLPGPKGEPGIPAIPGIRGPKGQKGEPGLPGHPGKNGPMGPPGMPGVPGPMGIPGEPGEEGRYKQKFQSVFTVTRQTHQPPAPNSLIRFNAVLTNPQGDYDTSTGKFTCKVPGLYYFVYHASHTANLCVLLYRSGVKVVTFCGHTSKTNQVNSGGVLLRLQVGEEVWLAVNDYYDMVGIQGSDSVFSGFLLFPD

What was measured:
Assay in all cases: ELISA
[1] = biological target: rituximab IgG1 with Fc variant YTE (human)
[2] = biological target: rituximab IgG1 with wild type Fc (human)
[3] = biological target: rituximab IgG1 with Fc variant LS (human)
[4] = biological target: rituximab IgG1 with Fc variant DF197 (human)
[5] = biological target: rituximab IgG1 with Fc variant DF215 (human)
[6] = biological target: rituximab IgG1 with Fc variant DF183 (human)
[7] = biological target: rituximab IgG1 with Fc variant DF228 (human)
[8] = biological target: rituximab IgG1 with Fc variant DF213 (human)

Purified C1q (from UniProt P02745 23-245; P02746 28-253; P02747 29-245) (complex)
EC50 [1]: 0.0215 µM
EC50 [2]: 0.0226 µM
EC50 [3]: 0.0214 µM
EC50 [4]: 0.0462 µM
EC50 [5]: 0.0219 µM
EC50 [6]: 0.0165 µM
EC50 [7]: 0.0209 µM
EC50 [8]: 0.0206 µM
